pEC50: −log10 of the molar value.
Molecular target: 5-HT1AR (serotonin 1A receptor) (Homo sapiens, UniProt P08908)
Assay: G protein nanoBRET
Format: cell-based

Sequences of proteins named here, by UniProt entry; tags and fusion partners are left off.
UniProt P08908, whole entry: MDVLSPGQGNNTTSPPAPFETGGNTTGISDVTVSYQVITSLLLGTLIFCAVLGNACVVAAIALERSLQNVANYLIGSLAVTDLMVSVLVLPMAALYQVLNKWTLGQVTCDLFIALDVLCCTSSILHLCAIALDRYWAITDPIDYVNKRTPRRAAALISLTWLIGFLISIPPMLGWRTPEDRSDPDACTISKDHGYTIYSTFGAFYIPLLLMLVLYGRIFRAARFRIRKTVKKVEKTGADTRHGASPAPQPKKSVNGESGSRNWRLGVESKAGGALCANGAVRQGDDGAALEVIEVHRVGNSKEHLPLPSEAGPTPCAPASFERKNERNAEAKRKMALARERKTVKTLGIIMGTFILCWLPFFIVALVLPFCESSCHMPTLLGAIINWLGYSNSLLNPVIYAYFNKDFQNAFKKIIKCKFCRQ

**Q.** `CNS(=O)(=O)Cc1ccc2[nH]cc(CCN(C)C)c2c1` [Sumatriptan] was tested. Which pEC50 did it give?
**A.** Its pEC50 is 5.17.
